Earlier results, collected in patent US9005678B1, “Pharmaceutical composition for treating cancer and use thereof” (Jiangsu Province Institute of Traditional Chinese Medicine, priority 2013, dated 2015).

Conditions: cumulative dose of 780 to 850 mg/m^2; cited from earlier work

For `O=C1[O][Pt]2([NH][C@@H]3CCCC[C@H]3[NH]2)[O]C1=O` [oxaliplatin], the “cancer patients suffering neurotoxicity” value is given as 15%.
